Experimental data published in patent publication US20110021524A1, “COMPOSITIONS AND METHODS FOR TREATING CANCERS” (IRM LLC, priority 2008, published 2011).

Protein sequences, listed by entry. Tags and fused reporters are not part of them. Residues count along the entry.
UniProt P00519, 28-1130 limits assumed: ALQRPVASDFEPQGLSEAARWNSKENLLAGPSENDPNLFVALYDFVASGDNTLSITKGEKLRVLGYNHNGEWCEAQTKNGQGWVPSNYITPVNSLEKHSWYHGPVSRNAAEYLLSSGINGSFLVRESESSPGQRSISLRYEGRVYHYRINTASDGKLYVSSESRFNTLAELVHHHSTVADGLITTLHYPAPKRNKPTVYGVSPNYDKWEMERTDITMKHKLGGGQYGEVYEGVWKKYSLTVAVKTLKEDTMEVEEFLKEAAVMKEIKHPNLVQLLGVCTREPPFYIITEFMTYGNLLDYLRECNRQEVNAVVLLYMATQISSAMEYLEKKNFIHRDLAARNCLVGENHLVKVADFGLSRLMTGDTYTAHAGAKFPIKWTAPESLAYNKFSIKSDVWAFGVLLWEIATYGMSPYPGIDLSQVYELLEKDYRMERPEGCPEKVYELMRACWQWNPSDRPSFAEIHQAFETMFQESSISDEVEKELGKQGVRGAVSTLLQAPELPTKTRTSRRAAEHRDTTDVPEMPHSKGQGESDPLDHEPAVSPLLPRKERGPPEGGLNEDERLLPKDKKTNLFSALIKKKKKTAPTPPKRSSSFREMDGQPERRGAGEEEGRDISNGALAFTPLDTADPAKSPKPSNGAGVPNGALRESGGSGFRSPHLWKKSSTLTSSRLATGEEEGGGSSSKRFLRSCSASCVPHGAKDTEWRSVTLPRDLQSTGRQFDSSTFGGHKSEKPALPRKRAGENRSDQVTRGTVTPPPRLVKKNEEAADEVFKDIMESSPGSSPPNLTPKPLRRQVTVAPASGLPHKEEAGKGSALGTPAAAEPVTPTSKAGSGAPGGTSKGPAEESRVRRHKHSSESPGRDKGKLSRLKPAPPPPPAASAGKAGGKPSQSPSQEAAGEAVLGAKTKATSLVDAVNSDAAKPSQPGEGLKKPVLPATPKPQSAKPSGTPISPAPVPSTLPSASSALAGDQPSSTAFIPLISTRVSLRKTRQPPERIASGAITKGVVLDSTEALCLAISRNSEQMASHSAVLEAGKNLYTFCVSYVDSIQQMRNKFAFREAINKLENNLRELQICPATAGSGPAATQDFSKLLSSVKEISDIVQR

Biological target: Bcr-Abl (Homo sapiens, UniProt P00519)
Test: BCR-ABL activity of cis/trans conformation analogues (Table 4)
Details: read-out: IC50 Bcr-Abl

| IC50 | SMILES |
| --- | --- |
| > 10000 nM | FC(F)(F)Oc1ccc(Nc2ncnc(NCCN3CCOCC3)n2)cc1 |
| 970 nM | Cc1c(NCCN2CCOCC2)ncnc1Nc1ccc(OC(F)(F)F)cc1 |
| > 10000 nM | FC(F)(F)Oc1ccc(Nc2nccc(NCCN3CCOCC3)n2)cc1 |
| 810 nM | FC(F)(F)Oc1ccc(Nc2cc(NCCN3CCOCC3)ncn2)cc1 |
